According to ChEMBL document CHEMBL1149952, “Inhibition of human leukocyte elastase (HLE) by novel bicyclic -lactams” (Bioorg Med Chem Lett, 1993):

Tests used:
[1] = molecular target: T1, Neutrophil elastase (Homo sapiens) (UniProt P08246)
T1 sequence (whole entry): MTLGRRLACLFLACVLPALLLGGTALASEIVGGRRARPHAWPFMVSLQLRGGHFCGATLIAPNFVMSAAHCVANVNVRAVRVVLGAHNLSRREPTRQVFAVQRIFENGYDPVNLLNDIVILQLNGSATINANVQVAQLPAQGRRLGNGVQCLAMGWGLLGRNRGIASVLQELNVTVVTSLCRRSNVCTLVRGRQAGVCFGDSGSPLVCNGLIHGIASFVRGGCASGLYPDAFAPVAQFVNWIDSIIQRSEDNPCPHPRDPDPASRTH

[2] = molecular target: T1, Neutrophil elastase (Homo sapiens); remark: listed apart in the source
[3] = molecular target: T1, Neutrophil elastase (Homo sapiens); remark: listed apart in the source

k off [1]	k on [2]	kOH [3]	Structure (SMILES)
0.0004 s⁻¹	130 M⁻¹ s⁻¹	20 M⁻¹ s⁻¹	C[C@@H](O)[C@H]1C(=O)N2S/C(=C/C(=O)OC(C)(C)C)C[C@H]12
0.00067 s⁻¹	170 M⁻¹ s⁻¹	0.08 M⁻¹ s⁻¹	C[C@@H](O)[C@H]1C(=O)N2C/C(=C/C(=O)OC(C)(C)C)S[C@H]12
